Laboratory results: patent US12528818B2, “Compositions and methods for inhibition of RAS” (Leidos Biomedical Research, Inc., priority 2021, dated 2026)

Experiments:
[1] = target: GppNHp-loaded KRAS4b (amino acids 1-169) G12C/C118S protein (Homo sapiens, UniProt P01116, C118S/G12C); assay: Covalent cysteine 12 modification by MALDI-TOF MS, GppNHp-loaded KRAS G12C; format: biochemical; settings: 15 minutes reaction time, compound 95 or later using 1 μM proteins
[2] = target: T1, GTP-loaded KRAS4b (amino acids 1-169) G12C/C118S protein (Homo sapiens, UniProt P01116, C118S/G12C); assay: Covalent cysteine 12 modification by MALDI-TOF MS, GTP-loaded KRAS G12C; format: biochemical; settings: 15 minutes reaction time, compound 95 or later using 1 μM proteins
T1 construct: KRAS4b (amino acids 1-169) G12C/C118S protein; made in house

[3] = target: GDP-loaded KRAS4b (amino acids 1-169) G12C/C118S protein (Homo sapiens, UniProt P01116, C118S/G12C); assay: Covalent cysteine 12 modification by MALDI-TOF MS, GDP-loaded KRAS G12C; format: biochemical; settings: 15 minutes reaction time, compound 95 or later using 1 μM proteins
[4] = target: Avi-KRAS G12C (1-169) GppNHp/RAF1 RBD-3xFLAG (52-151) (Homo sapiens, UniProt P01116, G12C); assay: biochemical; settings: Raf1-GppNHp-KRAS G12C disruption, Raf1 RBD-KRAS G12C-GppNHp disruption assay IC50

Row | Compound | GppNHp-KRAS G12C percent of modification [1] | GTP-KRAS G12C percent of modification [2] | GDP-KRAS G12C percent of modification [3] | IC50 [4] [nM]
1 | C=CC(=O)N1C[C@H](C)N(c2nc(OC[C@@]34CCCN3C[C@H](F)C4)nc3cc(-c4ccc(F)c5sc(N)nc45)c(C(F)(F)F)cc23)C[C@H]1C [Compound 299] | C (10%≤percent of modification <50%) | D (percent of modification <10%) | A (percent of modification ≥70%) | < 500
2 | C=CC(=O)N1C[C@H](C)N(c2nc(OC[C@@]34CCCN3C[C@H](F)C4)nc3c(F)c(-c4ccc(F)c5sc(N)c(C#N)c45)ccc23)C[C@H]1C [Compound 312] | B (50≤percent of modification <70%) | D (percent of modification <10%) | A (percent of modification ≥70%) | < 500
3 | C=CC(=O)N1C[C@H](N(C)c2nc(OC[C@@]34CCCN3C[C@H](F)C4)nc3c(F)c(-c4ccc(F)c5sc(N)c(C#N)c45)ccc23)C[C@H]1C [Compound 319] | A (percent of modification ≥70%) | A (percent of modification ≥70%) | A (percent of modification ≥70%) | < 500
4 | C=CC(=O)N1CC[C@@H](N(C)c2nc(OC[C@@]34CCCN3C[C@H](F)C4)nc3c(F)c(-c4ccc(F)c5sc(N)c(C#N)c45)c(C(F)(F)F)cc23)C1 [Compound 253] | A (percent of modification ≥70%) | A (percent of modification ≥70%) | A (percent of modification ≥70%) | < 500

Next, values leading:

Row | GppNHp-KRAS G12C percent of modification [1] | GTP-KRAS G12C percent of modification [2] | GDP-KRAS G12C percent of modification [3] | IC50 [4] [nM] | Compound
5 | A (percent of modification ≥70%) | B (50≤percent of modification <70%) | A (percent of modification ≥70%) | < 500 | C=CC(=O)N1CC[C@@H](N(CC)c2nc(OC[C@@]34CCCN3C[C@H](F)C4)nc3cc(-c4ccc(F)c5sc(N)c(C#N)c45)c(F)cc23)[C@H]1COC [Compound 437]
6 | A (percent of modification ≥70%) | B (50≤percent of modification <70%) | A (percent of modification ≥70%) | < 500 | C=CC(=O)N1CCC(N(CC)c2nc(OC[C@@H]3CCCN3C)nc3c(F)c(-c4ccc(F)c5sc(N)c(C#N)c45)c(C(F)(F)F)cc23)[C@H]1COC (some centres unmarked) [Compound 438]
7 | C (10%≤percent of modification <50%) | D (percent of modification <10%) | A (percent of modification ≥70%) | < 500 | C=CC(=O)N1C[C@H](C)N(c2ncnc3c(F)c(-c4ccc(F)c5sc(N)c(C#N)c45)c(C(F)(F)F)cc23)C[C@H]1C [Compound 382]
8 | A (percent of modification ≥70%) | A (percent of modification ≥70%) | A (percent of modification ≥70%) | < 500 | C=CC(=O)N1CC[C@@H](N(C)c2nc(OC[C@@]34CCCN3C[C@H](F)C4)nc3c(F)c(-c4ccc(F)c5sc(N)c(C#N)c45)c(Cl)cc23)C1 [Compound 342]
